The text below walks through data of PMC5061470, “Promiscuous targeting of bromodomains by bromosporine identifies BET proteins as master regulators of primary transcription response in leukemia” (Science Advances, 2016).

By UniProt entry, the sequences of proteins in these tests, tags left out. Where a name states a change or a piece, a line headed by the entry shows the natural chain unless it says otherwise. Residues count along the entry.
UniProt P25440, 74-180 limits assumed: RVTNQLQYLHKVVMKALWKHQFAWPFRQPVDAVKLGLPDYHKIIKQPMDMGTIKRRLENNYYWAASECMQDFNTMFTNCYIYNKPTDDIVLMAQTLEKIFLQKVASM
UniProt P43116: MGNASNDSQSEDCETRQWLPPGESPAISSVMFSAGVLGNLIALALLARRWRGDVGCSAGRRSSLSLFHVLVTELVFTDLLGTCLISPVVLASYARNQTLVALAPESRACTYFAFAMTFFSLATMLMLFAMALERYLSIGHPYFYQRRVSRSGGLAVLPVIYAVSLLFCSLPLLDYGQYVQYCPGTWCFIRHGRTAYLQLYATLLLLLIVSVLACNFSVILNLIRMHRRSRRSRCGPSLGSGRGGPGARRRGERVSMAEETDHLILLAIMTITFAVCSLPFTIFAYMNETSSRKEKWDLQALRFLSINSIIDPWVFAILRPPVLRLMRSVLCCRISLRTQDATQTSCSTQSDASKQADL
UniProt P21452, whole entry: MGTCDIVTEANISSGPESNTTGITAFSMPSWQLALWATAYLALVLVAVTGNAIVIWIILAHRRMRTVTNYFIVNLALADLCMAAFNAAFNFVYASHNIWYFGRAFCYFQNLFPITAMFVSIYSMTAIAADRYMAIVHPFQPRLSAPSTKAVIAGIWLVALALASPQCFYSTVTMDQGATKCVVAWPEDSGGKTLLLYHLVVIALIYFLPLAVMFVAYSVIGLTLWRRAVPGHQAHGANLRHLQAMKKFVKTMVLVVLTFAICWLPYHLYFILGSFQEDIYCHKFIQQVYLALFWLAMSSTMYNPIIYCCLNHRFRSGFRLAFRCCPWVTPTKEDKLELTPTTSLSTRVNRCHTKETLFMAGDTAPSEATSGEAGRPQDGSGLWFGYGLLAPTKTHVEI

The term Kd denotes the free concentration of one partner at which half of the binding sites on the other are occupied at equilibrium, for simple one-to-one binding. Low readings indicate a tighter complex, high ones a looser complex. Broadly, the IC50 is the midpoint of a concentration-inhibition curve. A lower IC50 goes with higher potency. What is called Ki is a measure of affinity in units of concentration, obtained from inhibition or displacement.

In one assay the target is BRD2(1) (Homo sapiens, UniProt P25440). The experiment in a line: biochemical.
The next assay deals with EP2 (h) (Homo sapiens, UniProt P43116). The assay is classed as binding.
The next assay has as its target NK2 (h) (Homo sapiens, UniProt P21452). The experiment in a line: biochemical. Format: binding.

Consider `CCOC(=O)Nc1cc(-c2ccc(C)c(NS(C)(=O)=O)c2)nn2c(C)nnc12` [BSP, ethyl (3-methyl-6-(4-methyl-3-(methylsulfonamido)phenyl)-[1,2,4]triazolo[4,3-b]pyridazin-8-yl)carbamate], for which the Kd on BRD2(1) came out at 97.1 ± 6.7 nM.

Regarding `CCCCC[C@H](O)/C=C/[C@H]1[C@H](O)CC(=O)[C@@H]1C/C=C\CCCC(=O)O` [PGE2], inhibition against EP2 (h) was half-maximal at 3 nM (IC50). Also, the Ki at EP2 (h) (read-out: Ki Ref.) was 1.5 nM.

For `CCCC[C@H](NC(=O)[C@H](CC(C)C)NC(=O)CNC(=O)[C@@H](NC(=O)[C@H](Cc1ccccc1)NC(=O)[C@H](CO)NC(=O)[C@@H](N)CC(=O)O)C(C)C)C(N)=O`, on NK2 (h), 2.8 nM corresponded to half-maximal inhibition (IC50) and the affinity corresponds to a Ki of 1.5 nM.
